According to patent US20060293384A1, “Isethionyl nitrates and compounds thereof” (published 2006):

What was measured:
human organism [1] = assay: self-administration of taurine against arrhythmias; details: inventor themself
human organism [2] = assay: self-administration under the tongue, symptoms and duration of vasodilatory effect; details: inventor themself

NCCS(=O)(=O)O
effect on arrhythmias (human organism [1]; 250 mg of taurine in conjunction with magnesium and calcium): arrhythmias could be alleviated wholly
recurrence of arrhythmia (human organism [1]; one 250 mg tablet of taurine on a weekly basis): have not suffered such arrhythmia for several years

O=[N+]([O-])OCC(CO[N+](=O)[O-])O[N+](=O)[O-]
duration of similar effect (human organism [2]): 7 to 8 min
maximum duration of similar effect (human organism [2]): ≤ 15 min

isethionic nitrate
symptoms when placed under the tongue (human organism [2]; diluted in approximately 100 times its volume of 190 proof grain alcohol, sublingual): promptly caused the same symptoms as a small amount of glyceryl trinitrate
duration of effect (human organism [2]; sublingual): about 1 hour
temperature at which the material begins to discolor when heated (discoloration on heating): about 70 degrees C.
